Values quoted from earlier work as cited in patent publication US7718385B2, “Bioactivation of alkylating agents for cancer treatment” (priority 2003, dated 2010).

Tested on: human tumor cell lines
Conditions: several human tumor cell lines in vitro; cited from earlier work

Q: Which “concentrations with cytotoxic and cytostatic properties” value does the source give for `CC1=C2C(=C[C@@](C)(CO)[C@@H]2O)C(=O)[C@](C)(O)C12CC2` [Illudin S] here?
A: Its value is “nanomolar concentrations”.
